Assay results published in US6476076B1 (priority 1999, dated 2002).

Sequences of proteins named here, by UniProt entry; tags and fusion partners are left off.
UniProt O35433, whole entry: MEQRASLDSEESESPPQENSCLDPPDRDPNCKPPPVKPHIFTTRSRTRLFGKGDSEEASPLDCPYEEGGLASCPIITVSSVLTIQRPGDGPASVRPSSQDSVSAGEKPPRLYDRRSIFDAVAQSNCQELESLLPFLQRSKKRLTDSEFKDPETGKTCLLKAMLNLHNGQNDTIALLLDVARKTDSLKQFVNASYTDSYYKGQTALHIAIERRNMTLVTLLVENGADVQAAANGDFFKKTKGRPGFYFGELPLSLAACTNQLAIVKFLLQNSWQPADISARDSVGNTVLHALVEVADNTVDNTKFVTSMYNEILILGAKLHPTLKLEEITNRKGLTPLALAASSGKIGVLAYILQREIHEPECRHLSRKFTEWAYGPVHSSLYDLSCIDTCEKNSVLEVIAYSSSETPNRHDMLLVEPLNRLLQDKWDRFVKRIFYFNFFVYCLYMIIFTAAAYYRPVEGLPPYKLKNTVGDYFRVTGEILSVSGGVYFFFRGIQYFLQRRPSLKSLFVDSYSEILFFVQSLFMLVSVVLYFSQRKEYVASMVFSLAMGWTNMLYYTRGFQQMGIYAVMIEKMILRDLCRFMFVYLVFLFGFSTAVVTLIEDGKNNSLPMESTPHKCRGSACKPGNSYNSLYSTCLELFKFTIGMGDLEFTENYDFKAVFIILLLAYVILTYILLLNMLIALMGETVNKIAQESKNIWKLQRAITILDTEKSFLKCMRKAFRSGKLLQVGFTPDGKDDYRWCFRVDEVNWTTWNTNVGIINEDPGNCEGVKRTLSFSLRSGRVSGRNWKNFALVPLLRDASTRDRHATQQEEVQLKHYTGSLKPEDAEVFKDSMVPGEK

Target: T1, vanilloid receptor (rat spinal cord membrane preparations) (Rattus norvegicus, UniProt O35433)
T1 construct: determined on membrane preparations from rat spinal cord; from tissue; host or cells: rat spinal cord membranes
Format: binding
Conditions: read-out: Affinities (Ki)

Substance | Ki [nM]
2-(4-Chlorobenzyl)-3-{[(4-hydroxy-3-methoxybenzyl)amino]carbothioyl}propyl Benzoate [7c-V] | 149
2-Benzyl-3-{[(4-hydroxy-3-methoxybenzyl)amino]carbothioyl}propyl Benzoate [7a-V] | 31.2
(S)-2-Benzyl-3-{[(4-hydroxy-3-methoxybenzyl)amino]carbothioyl}propyl Pivalate [(S)-7a-I] | 74
2-Benzyl-3-{[(4-hydroxy-3-methoxybenzyl)amino]carbothioyl}propyl Pivalate [7a-I] | 65.6
2-(4-t-Butylbenzyl)-3-{[(4-hydroxy-3-methoxybenzyl)amino]carbothioyl}propyl Pivalate [7d-I] | 10.8
2-(3,4-Dimethylbenzyl)-3-{[(4-hydroxy-3-methoxybenzyl)amino]carbothioyl}propyl Pivalate [7b-I] | 19
